Assay [1] addresses T1, Histone deacetylase 4 (Homo sapiens, UniProt P56524). As to the kind of experiment: Binding affinity to immobilized HDAC4 catalytic domain (unknown origin) by surface plasmon resonance assay. (Surface plasmon resonance follows binding to a sensor surface in real time, without labels.)
In assay [2] the target is T1, Histone deacetylase 4. Nature of the assay: Inhibition of Class 2A HDAC4 in human Jurkat E6.1 cells using Boc-Lys-(TFA)-AMC as substrate by fluorogenic assay. The assay is classed as cell-based. An outline of the steps: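 Whole-cell assay in Jurkat E6.1 cells with artificial fluorogenic substrates: Boc-Lys-(TFA)-AMC for class IIa/HDAC8 activity, which in this line is mostly HDAC4, and Boc-Lys-(Ac)-AMC for class I/IIb activity. IC50 given as the geometric mean of three experiments.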

Sequences of proteins named here, by UniProt entry; tags and fusion partners are left off. A change or cut given only in a name is not applied to a line headed by its entry.
UniProt P56524: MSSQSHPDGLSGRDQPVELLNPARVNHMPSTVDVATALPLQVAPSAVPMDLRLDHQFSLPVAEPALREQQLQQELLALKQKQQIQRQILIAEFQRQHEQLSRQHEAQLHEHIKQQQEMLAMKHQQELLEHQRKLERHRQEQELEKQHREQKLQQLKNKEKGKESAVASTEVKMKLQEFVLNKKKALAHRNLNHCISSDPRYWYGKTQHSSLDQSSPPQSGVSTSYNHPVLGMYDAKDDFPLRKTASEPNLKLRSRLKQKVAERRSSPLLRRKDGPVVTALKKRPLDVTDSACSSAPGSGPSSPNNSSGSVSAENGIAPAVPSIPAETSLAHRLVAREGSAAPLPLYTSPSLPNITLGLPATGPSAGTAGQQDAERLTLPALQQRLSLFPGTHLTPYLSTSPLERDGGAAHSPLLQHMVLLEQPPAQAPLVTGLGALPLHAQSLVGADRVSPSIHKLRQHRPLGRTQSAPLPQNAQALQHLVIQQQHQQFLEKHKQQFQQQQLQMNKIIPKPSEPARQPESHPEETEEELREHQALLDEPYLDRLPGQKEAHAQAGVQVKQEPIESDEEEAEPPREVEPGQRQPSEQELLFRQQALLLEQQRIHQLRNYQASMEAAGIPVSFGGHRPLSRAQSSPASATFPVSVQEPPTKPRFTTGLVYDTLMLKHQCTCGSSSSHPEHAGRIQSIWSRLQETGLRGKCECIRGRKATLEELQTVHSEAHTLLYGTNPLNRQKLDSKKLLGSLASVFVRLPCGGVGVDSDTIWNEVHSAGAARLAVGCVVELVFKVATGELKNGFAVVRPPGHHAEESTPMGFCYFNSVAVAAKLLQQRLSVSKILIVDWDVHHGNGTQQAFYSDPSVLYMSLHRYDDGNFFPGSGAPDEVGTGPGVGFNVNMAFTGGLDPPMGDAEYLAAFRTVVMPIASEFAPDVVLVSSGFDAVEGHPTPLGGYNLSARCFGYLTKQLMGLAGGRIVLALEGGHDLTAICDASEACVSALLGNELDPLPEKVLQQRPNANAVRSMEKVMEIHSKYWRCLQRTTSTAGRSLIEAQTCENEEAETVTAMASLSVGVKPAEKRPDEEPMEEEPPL

Assay [3] addresses T1, Histone deacetylase 4. Nature of the assay: Inhibition of HDAC4 (unknown origin) using Boc Lys(TFA) as substrate by fluorogenic assay. An outline of the steps: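 Biochemical HDAC isoform assay with the artificial fluorogenic substrate Boc-Lys-(TFA)-AMC, which is specific to class IIa enzymes and HDAC8. IC50 taken as the geometric mean of three experiments.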

Among the data in ChEMBL document CHEMBL4680373, “Evaluation of 5-(Trifluoromethyl)-1,2,4-oxadiazole-Based Class IIa HDAC Inhibitors for Huntington's Disease” (ACS Med Chem Lett, 2021) are Kd and IC50 values, retold here.

By Kd is commonly meant the free concentration of one partner at which half of the binding sites on the other are occupied at equilibrium, for simple one-to-one binding. The term IC50 denotes the concentration that gives 50% inhibition.

On to `CCCN(CCC)C[C@@H](C)NC(=O)c1ccc(-c2noc(C(F)(F)F)n2)cc1`, for which the dissociation constant (Kd) in assay [1] is 44 nM. The IC50 was determined as 20 nM in assay [2] and 3 nM in assay [3].
